How the values were obtained:
[1] = Phase 1 study: pharmacokinetic (PK) parameters of ALT-801 in plasma; assay type: in vivo; settings: human, 1.8 mg SC
From the text: Pharmacokinetic (“PK”) parameters can be estimated using Phoenix® WinNonlin® version 8.1 or higher (Certara USA, Inc., Princeton, New Jersey). A non-compartmental approach consistent with the extravascular route of administration can be used for parameter estimation. The individual plasma concentration-time data can be used for pharmacokinetic calculations. In addition to parameter estimates for individual animals, descriptive statistics (e.g. mean, standard deviation, coefficient of variation, median, min, max) can be determined, as appropriate. Concentration values that are below the limit of quantitation can be treated as zero for determination of descriptive statistics and pharmacokinetic analysis. Embedded concentration values that are below the limit of quantitation can be excluded from pharmacokinetic analysis. All parameters can be generated from individual dual agonist peptide (or derivatives and/or metabolites thereof) concentrations in plasma from test article-treated groups on the day of dosing (Day 1). Parameters can be estimated using nominal dose levels, unless out of specification dose formulation analysis results are obtained, in which case actual dose levels can be used. Parameters can be estimated using nominal sampling times; if bioanalytical sample collection deviations are documented, actual sampling times can be used at the affected time points. […] Pharmacokinetic parameters can be calculated and presented in the units provided by the analytical laboratory (the order of magnitude can be adjusted appropriately for presentation in the report, e.g. h*ng/mL converted to h*μg/mL). Descriptive statistics (e.g., mean, standard deviation, coefficient of variation, median, min, max) and pharmacokinetic parameters can be determined to three significant figures, as appropriate. […] PK parameters to be determined, as data permit, can include but are not limited to the following: Cmax: Maximum observed concentration; DN Cmax: dose normalized maximum concentration, calculated as Cmax/dose; Tmax: time of maximum observed concentration; AUC0-t: area under the curve from time 0 to the time of the last measurable concentration, calculated using the linear trapezoidal rule; AUC0-96: area under the curve from time 0 to hour 96, calculated using the linear trapezoidal rule; DN AUC0-96: dose normalized AUC0-96, calculated as AUC0-96/dose; AUC0-inf: area under the curve from time 0 to infinity (Day 1 only), calculated as AUC0-inf=AUC0-t+Ct/λz, where Ct is the last observed quantifiable concentration and λz is the elimination rate constant; t1/2: elimination half-life, calculated as ln(2)/λz. Additional parameters and comparisons (e.g., sex ratios, dose proportionality ratios, etc.) can also be determined, as would be understood by those of ordinary skill in the art. […]

[2] = Phase 1 MAD study of ALT-801: BMI (body mass index); assay type: in vivo, human; settings: 12 weeks (Day 85), 1.2, 1.8 and 2.4 mg
Protocol: Height is measured in centimeters using a wall-mounted stadiometer or one mounted on a balance beam scale, whichever is available. Subjects should be wearing socks or be barefoot. With the exception of screening visits, weight is measured in kilograms using a calibrated scale at approximately the same time of day at each nominal timepoint. Measurements should be taken with subjects wearing a gown (or other standard clothing provided by the clinical research unit), undergarments, and socks (no shoes), while fasting and after the subject has been asked to void (ie, empty bladder). Waist circumference should be taken with the subject wearing a gown. […] The measurement need not be at the level of the umbilicus. The measuring tape is kept horizontal. Height, weight, and waist circumference is measured, and BMI calculated and recorded according to the schedules in Part 1 and Part 2. Measurement of height is required at screening only. Waist circumference is measured for subjects in Part 2 only.

[3] = Good Laboratory Practice toxicology study, NOAEL in monkeys; assay type: in vivo
Protocol: The maximal recommended starting dose (MRSD) in Part 1 is based on one tenth the human equivalent dose (HED) at the NOAEL determined in animals (rats and monkeys) in the pivotal Good Laboratory Practice toxicology study. […] The rat NOAEL was the high dose, 0.45 mg/kg/week, which is equivalent to 0.44 mg/wk in a 60 kg human based on body surface area scaling. […] Using a 10-fold scaling factor for safety, the human starting dose of 0.40 mg/wk for a 60 kg human was selected. […] This is particularly relevant because the monkey, although not the most sensitive species, is biologically the more relevant species for the most clinically relevant toxicities (i.e., reduced food intake and vomiting). Clinical observations and PK in Part 1 will ultimately guide dosing considerations in Part 2.
The pre-clinical safety findings support a 3-fold dose escalation increment to SAD Cohort 2. Subsequent escalations will not exceed 2-fold in either part of the study. Dose titration schemes may be explored if needed to improve tolerability. […] Further, the expectation is the Cmax and AUCtau of the final week of dosing will not exceed the Cmax or AUCinf of a dose in a previously completed and safety-assessed SAD cohort.

[4] = Example 6 planned Phase 1 study of ALT-801 in overweight and obese subjects with T2DM; settings: SC once weekly up to 12 doses

`CC[C@H](C)[C@H](NC(=O)[C@H](Cc1ccccc1)NC(=O)[C@H](CCC(=O)O)NC(=O)[C@@H]1CCCCNC(=O)CC[C@H](NC(=O)[C@H](CC(=O)O)NC(=O)[C@H](CC(C)C)NC(=O)[C@H](Cc2ccc(O)cc2)NC(=O)[C@H](CCCCN)NC(=O)[C@H](CO)NC(=O)[C@H](Cc2ccc(O)cc2)NC(=O)[C@H](CC(=O)O)NC(=O)[C@H](CO)NC(=O)[C@@H](NC(=O)[C@H](Cc2ccccc2)NC(=O)[C@@H](NC(=O)CNC(=O)[C@H](CCC(N)=O)NC(=O)C(C)(C)NC(=O)[C@@H](N)Cc2c[nH]cn2)[C@@H](C)O)[C@@H](C)O)C(=O)N[C@@H](CCCCNC(=O)[C@H]2O[C@@H](OCCCCCCCCCCCCCCCCCC(=O)O)[C@H](O)[C@@H](O)[C@@H]2O)C(=O)N[C@@H](C)C(=O)N[C@@H](C)C(=O)N1)C(=O)N[C@@H](CCC(N)=O)C(=O)N[C@@H](Cc1c[nH]c2ccccc12)C(=O)N[C@@H](CC(C)C)C(=O)N[C@@H](CC(C)C)C(=O)N[C@@H](CCC(N)=O)C(=O)N[C@H](C(N)=O)[C@@H](C)O` [ALT-801, pemvidutide] gave an AUC [1] of 3.4 µM·h, a half-life ([1]; read-out: Half-life (t1/2) (converted)) of 4.58 days and a Cmax ([1]; read-out: Peak concentration (Cmax)) of 27.1 nM. The Tmax ([1]; read-out: Time to peak concentration (Tmax)) was 70 h, the “BMI, in words” value [2] was “All treatment groups reduced BMI” and the “monkey NOAEL, equivalent in a 60 kg human” value ([3]; body surface area scaling) was 0.49 mg/wk. The primary findings ([3]; monkeys) was “weight loss” and the “expected outcome of trial” value [4] was “safe and tolerable”.

Reference: patent US12171806B2, “Therapeutic regimens and methods for lowering blood glucose and/or body weight using GLP-1R and GCGR balanced agonists” (priority 2021, dated 2024)
